Assay [1] relates to E. coli MG1655. Nature of the assay: Phosphorus and sulfur source testing, EPS panel. Format: cell-based. Particulars: 35° C., 48 hours; for suitability as phosphorus source (growth, purple color): 1.0 mM phosphorus source replacing NaH2PO4; for suitability as sulfur source (growth, purple color): 100 μM sulfur source replacing Na2SO4.
For assay [2], the system named is E. coli strain 14443 (MG1655 (FB426)). Nature of the assay: Carbon source utilization in Biolog ES MicroPlate. Note: key: '+' indicates that the organism tested was capable of utilizing the carbon source listed; '−' indicates that the organism tested was not capable of utilizing the carbon source listed; 'w' indicates weak positive reactions. The settings on record: PPS inoculum, 35° C., 24 hours. Format: cell-based.
Assay [3] deals with E. coli strain 6322 (EMG2 (K12, λF+)). Description: Carbon source utilization in Biolog ES MicroPlate. Note: key: '+' indicates that the organism tested was capable of utilizing the carbon source listed; '−' indicates that the organism tested was not capable of utilizing the carbon source listed; 'w' indicates weak positive reactions. Particulars: PPS inoculum, 35° C., 24 hours. The format is cell-based.
Assay [4] relates to E. coli strain 6320 (W3110). Nature of the assay: Carbon source utilization in Biolog ES MicroPlate. Note: key: '+' indicates that the organism tested was capable of utilizing the carbon source listed; '−' indicates that the organism tested was not capable of utilizing the carbon source listed; 'w' indicates weak positive reactions. Format: cell-based. Particulars: PPS inoculum, 35° C., 24 hours.
Assay [5] has as its system E. coli strain 14444 (MG1655 xylA). Nature of the assay: Carbon source utilization in Biolog ES MicroPlate. Note: key: '+' indicates that the organism tested was capable of utilizing the carbon source listed; '−' indicates that the organism tested was not capable of utilizing the carbon source listed; 'w' indicates weak positive reactions. Format: cell-based. The settings on record: PPS inoculum, 35° C., 24 hours.
Assay [6] relates to E. coli strain 6321 (MG1655). Nature of the assay: Carbon source utilization in Biolog ES MicroPlate. The format is cell-based. Particulars: PPS inoculum, 35° C., 24 hours.
In assay [7] the test system is E. coli strain 14445 (MG1655 himA). Description: Carbon source utilization in Biolog ES MicroPlate. Format: cell-based. Particulars: PPS inoculum, 35° C., 24 hours.
The test system of the next assay is T. harzianum DAOM 190830. Nature of the assay: Carbon source utilization in SF-N MicroPlate with redox purple. Format: cell-based, Trichoderma harzianum. Particulars: redox purple 200 μM, 0.25% Gelrite, 30° C., approximately 24 hours.
The test system of assay [8] is E. coli 287 (ATCC #11775).
Assay [9] concerns E. coli MG1655. Description: Nitrogen source testing, EN panel. The settings on record: 3.0 mM nitrogen source replacing NH4Cl; 35° C., 48 hours. Format: cell-based.
[10] abbreviates: all three redox indicators (redox purple, tetrazolium violet, resazurin), both 0.85% NaCl and 0.2% carrageenan suspensions, 35° C., approximately 16 hours.

Where two headings read alike, the source gives them in different places.

2′-deoxyglucose 6-phosphate: in the assay on E. coli MG1655 [1], the “suitability as phosphorus source (growth, purple color)” value (“suitability as phosphorus source” below) is recorded as “positive”.

Consider adenosine 2′:3′-cyclic monophosphate, for which the “suitability as phosphorus source” value in the assay on E. coli MG1655 [1] is “not suitable”.

For the substance uridine 2′:3′-cyclic monophosphate, the “suitability as phosphorus source” value in the assay on E. coli MG1655 [1] is “positive”.

In the case of thymidine 3′:5′-cyclic monophosphate, the “suitability as phosphorus source” value in the assay on E. coli MG1655 [1] is given as “not suitable”.

Take uridine 3′:5′-cyclic monophosphate: the “suitability as phosphorus source” value with E. coli MG1655 [1] is given as “not suitable”.

For dithiophosphate, in the assay on E. coli MG1655 [1], the “suitability as sulfur source (growth, purple color)” value was “positive” and the “suitability as phosphorus source” value was “positive”.

For the substance M-tartaric acid, the carbon source utilization entry in assay [2], in [3], in assay [4], in assay [5], in assay [6] and in [7] was “−” in each case.

Turning to α-hydroxy-glutaric acid γ-lactone, the carbon source utilization entry in assay [2] is given as “−”; in [3] it was “−”; in assay [4], “−”; in [5], “−”; in assay [6] it was “w”; in [7], “−”.

As for sulfate, in the assay with E. coli MG1655 [1], the “suitability as sulfur source (growth, purple color)” value is on record as “positive”.

Consider Acetoactetic acid, for which the carbon source utilization result is recorded as “−” in [2]; “−” in [3]; “w” in [4]; “−” in assay [5]; “−” in [6]; “−” in [7].

As for 2-aminoethyl phosphonate, in the assay on E. coli MG1655 [1], the “suitability as phosphorus source” value is “weak positive”.

Consider Tween-40, for which the “carbon source utilization result” value (with T. harzianum DAOM 190830; in [8] (setting [10])) was “positive” each time. Moreover, the carbon source utilization result is reported as “−” in [2]; “w” in assay [3]; “w” in assay [4]; “−” in assay [5]; “w” in assay [6]; “−” in assay [7].

For the substance phosphate, the “suitability as phosphorus source” value with E. coli MG1655 [1] is given as “positive”.

As to M-inositol, the carbon source utilization result in [2], in [3], in assay [4], in assay [5], in assay [6] and in assay [7] was “−” throughout. For the same substance, the “carbon source utilization result” value is given as “negative” in assay [8] (redox purple, both 0.85% NaCl and 0.2% carrageenan suspensions); “positive/negative” in [8] (resazurin, 0.2% carrageenan suspension); “negative” in assay [8] (resazurin, 0.85% NaCl suspension); “negative” in [8] (tetrazolium violet, both 0.85% NaCl and 0.2% carrageenan suspensions).

In the case of parabanic acid, the “suitability as nitrogen source (growth, purple color)” value in the assay with E. coli MG1655 [9] is recorded as “not suitable”.

In the case of i-erythritol, the “carbon source utilization result” value is “positive” with T. harzianum DAOM 190830 and “negative” in assay [8] (setting [10]).

As for δ-amino-n-valeric acid, the “suitability as nitrogen source (growth, purple color)” value in the assay on E. coli MG1655 [9] is on record as “positive”.

For the substance cytidine 2′:3′-cyclic monophosphate, in the assay with E. coli MG1655 [1], the “suitability as phosphorus source” value is reported as “positive”.

Consider trimetaphosphate, for which, in the assay with E. coli MG1655 [1], the “suitability as phosphorus source” value is on record as “positive”.

For cytidine 3′:5′-cyclic monophosphate, the “suitability as phosphorus source” value in the assay with E. coli MG1655 [1] is on record as “not suitable”.

As for nitrophenyl phosphate, in the assay on E. coli MG1655 [1], the “suitability as phosphorus source” value is recorded as “not suitable”.
